According to patent US20240360179A1, “STAPLED PEPTIDES AND METHODS THEREOF” (FOG PHARMACEUTICALS, INC., priority 2021, published 2024):
Where two headings read alike, the source gives them in different places.

Sequences of proteins named here, by UniProt entry; tags and fusion partners are left off.
UniProt P35222, whole entry: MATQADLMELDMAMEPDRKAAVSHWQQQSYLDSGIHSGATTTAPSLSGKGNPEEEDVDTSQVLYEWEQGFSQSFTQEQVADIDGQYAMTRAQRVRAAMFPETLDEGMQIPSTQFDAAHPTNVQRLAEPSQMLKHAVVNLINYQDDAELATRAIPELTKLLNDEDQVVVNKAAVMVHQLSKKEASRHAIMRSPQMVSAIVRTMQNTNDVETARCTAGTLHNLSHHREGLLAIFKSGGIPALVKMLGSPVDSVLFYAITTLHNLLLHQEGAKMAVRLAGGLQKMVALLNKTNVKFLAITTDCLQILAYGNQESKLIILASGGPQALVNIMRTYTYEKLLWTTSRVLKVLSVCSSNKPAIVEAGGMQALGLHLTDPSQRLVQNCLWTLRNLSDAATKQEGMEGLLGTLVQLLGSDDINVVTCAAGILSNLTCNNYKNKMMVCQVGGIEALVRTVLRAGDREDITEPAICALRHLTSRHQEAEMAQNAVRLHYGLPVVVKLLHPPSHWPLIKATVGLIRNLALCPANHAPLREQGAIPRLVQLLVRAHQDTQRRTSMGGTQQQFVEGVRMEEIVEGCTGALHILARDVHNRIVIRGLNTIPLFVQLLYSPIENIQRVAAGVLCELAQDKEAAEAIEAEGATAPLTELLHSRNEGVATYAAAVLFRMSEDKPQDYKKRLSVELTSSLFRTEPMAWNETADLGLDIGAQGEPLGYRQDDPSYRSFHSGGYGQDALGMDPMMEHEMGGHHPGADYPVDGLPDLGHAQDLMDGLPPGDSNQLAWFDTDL

Assays:
[1] = target: T1, full-length B-Catenin (Uniprot ID P35222) (Homo sapiens, UniProt P35222); type: binding; conditions: read-out: beta-Catenin FP IC50
T1 construct: 10 nM full-length B-Catenin (Uniprot ID P35222)

[2] = target: beta-catenin/TCF4 interaction (Homo sapiens, UniProt P35222); type: cell-based; parameters: host or cells: HEK293; conditions: read-out: NanoBRET Abs IC50
[3] = competition fluorescence polarization

Row | Substance | IC50 [1, 3] | IC50 [2] | IC50 [1] | IC50 ([2]; absolute IC50)
1 | Ac-PL3-Asp-Ile-B5-Asp-3COOHF-Aib-Ala-Phe-sCH2S*3-PyrS2-Phe-34ClF-TriAzLys*3-NH2 [I-1859] | < 50 nM | 3000 to 10000 nM |  | 
2 | Ac-PL3-Asp-Npg-B5-Asp-3COOHF-Ala-Ala-Phe-Lys*3-PyrS2-2F3MeF-34ClF-GlnR*3-Val-Ser-NH2 [I-826] | < 50 nM | 3000 to 10000 nM |  | 
3 | Ac-PL3-Asp-Npg-B5-Asp-3COOHF-Aib-Ala-Phe-Lys*3-PyrS2-3Thi-BztA-GlnR*3-Ala-Val-Pro-Ala-Leu-Arg-NH2 [I-816] | < 50 nM | < 1500 nM |  | 
4 | Ac-PL3-Asp-Ile-B5-Asp-3COOHF-Aib-Ala-Phe-Lys*3-PyrS2-3Thi-34ClF-GlnR*3-Ala-NH2 [I-1010] | < 50 nM | 1500 to 3000 nM |  | 
5 | Ac-PL3-Asp-Npg-B5-Asp-3COOHF-Aib-Ala-Phe-Lys*3-PyrS2-3Thi-BztA-GlnR*3-Ala-Lys-Leu-Pro-Val-nLeu-NH2 [I-814] | < 50 nM | 3000 to 10000 nM |  | 
6 | Ac-PL3-Asp-Npg-B5-Asp-4F3Me2COOHF-Aib-Ala-Phe-Lys*3-PyrS2-2F3MeF-BztA-GlnR*3-Ala-NH2 [I-205] | < 50 nM | 3000 to 10000 nM |  | 
7 | Ac-PL3-Asp-Npg-B5-Asp-3COOHF-Cha-Ala-Phe-Lys*3-PyrS2-2F3MeF-BztA-GlnR*3-Leu-NH2 [I-111] | 50 to 200 nM | 3000 to 10000 nM |  | 
8 | Ac-PL3-Asp-Npg-B5-Asp-3COOHF-Aib-Ala-Phe-TriAzLys*3-R3iPrPyrSc7-3Thi-BztA-sAla*3-Ala-NH2 [I-1814] |  | > 10000 nM | < 50 nM | 
9 | Ac-PL3-Asp-Npg-B5-Asp-TfeGA-Phe-Ala-Phe-Lys*3-PyrS2-Phe-BztA-GlnR*3-Ala-NH2 [I-901] | < 50 nM | > 10000 nM |  | 
10 | Ac-PL3-Asp-Npg-B5-Asp-3COOHF-Aib-Ala-Phe-Lys*3-PyrS2-Phe-34ClF-GlnR*3-Pro-NH2 [I-872] | < 50 nM | 3000 to 10000 nM |  | 
11 | Ac-S5-Val-Asp-Npg-B5-Asp-3COOHF-Aib-Ala-Phe-Lys*3-PyrS2-3Thi-BztA-GlnR*3-Ala-NH2 [I-1130] | > 1000 nM | > 10000 nM |  | 
12 | Ac-PL3-Asp-DipA-B5-Asp-3COOHF-Val-Ala-Phe-Lys*3-PyrS2-3Thi-BztA-GlnR*3-Ala-NH2 [I-984] | < 50 nM | 1500 to 3000 nM |  | 
13 | Ac-PL3-Asp-Npg-B5-Asp-3COOHF-Aib-Ala-Phe-Lys*3-PyrS2-3Thi-34ClF-GlnR*3-Ser-NH2 [I-869] | < 50 nM | 1500 to 3000 nM |  | 
14 | Ac-PL3-Asp-Npg-B5-Asp-3COOHF-Ala-Ala-Phe-Lys*3-PyrS2-Phe-34ClF-GlnR*3-Ala-NH2 [I-831] | < 50 nM | 3000 to 10000 nM |  | 
15 | Ac-S5-Phe-Asp-DipA-B5-Asp-3COOHF-Aib-Ala-Phe-Lys*3-PyrS1-Phe-34ClF-GlnR*3-NH2 [I-1808] | < 50 nM | > 10000 nM |  | 
16 | Ac-PL3-Asp-Npg-B5-Asp-3COOHF-[Me2diaminohexane]GlnR-Ala-Phe-Leu-PyrS2-2F3MeF-BztA-GlnR-NH2 [I-705] | < 50 nM | 3000 to 10000 nM |  | 
17 | Ac-Pro-S5-Ala-Asp-Npg-B5-Asp-3COOHF-Aib-Ala-Phe-Lys*3-PyrS2-3Thi-BztA-GlnR*3-Ala-NH2 [I-1139] | < 50 nM | > 10000 nM |  | 
18 | Ac-PL3-RbGlu-Npg-B5-Asp-3COOHF-Aib-Ala-Phe-Lys*3-PyrS2-3Thi-BztA-GlnR*3-Ala-NH2 [I-961] | < 50 nM | > 10000 nM |  | 
19 | Ac-PL3-Asp-Npg-B5-Asp-3COOHF-Aib-Ala-Phe-Lys*3-PyrS2-3Thi-BztA-GlnR*3-NH2 [I-712] | < 50 nM | < 1500 nM |  | 
20 | Ac-PL3-Asp-Npg-B5-Asp-3COOHF-Aib-Ala-Phe-dOrn*3-PyrS2-3Thi-BztA-AsnR*3-Ala-NH2 [I-793] | < 50 nM | > 10000 nM |  | 
21 | Ac-PL3-Asp-Chg-B5-Asp-3COOHF-Phe-Ala-Phe-Lys*3-PyrS2-3Thi-BztA-GlnR*3-Ala-NH2 [I-735] | < 50 nM | 3000 to 10000 nM |  | 
22 | Ac-PL3-Asp-DipA-B5-Asp-3COOHF-CyLeu-Ala-Phe-Lys*3-PyrS2-2F3MeF-34ClF-GlnR*3-Val-NH2 [I-1773] | < 50 nM | > 10000 nM |  | 
23 | Ac-PL3-Asp-Npg-B5-Asp-3COOHF-Aib-Ala-Phe-Lys*3-PyrS2-hnLeu-BztA-GlnR*3-Leu-Ser-NH2 [I-955] | 50 to 200 nM | 1500 to 3000 nM |  | 
24 | Ac-PL3-Asp-Npg-B5-Asp-3COOHF-Aib-Ala-Phe-Lys*3-PyrS2-2Thi-BztA-GlnR*3-NH2 [I-923] | < 50 nM | 1500 to 3000 nM |  | 

Row | Substance | IC50 [1, 3] | IC50 [2] | IC50 [1] | IC50 ([2]; absolute IC50)
25 | Ac-PL3-Asp-Npg-B5-Asp-3COOHF-Aib-Ala-Phe-Lys*3-PyrS2-3Thi-BztA-hGlnR*3-NH2 [I-786] | < 50 nM | 3000 to 10000 nM |  | 
26 | Ac-PL3-Asp-Npg-B5-Asp-3COOHF-Phe-nLeu-Phe-Lys*3-PyrS2-3Thi-BztA-GlnR*3-Ala-NH2 [I-1018] | < 50 nM | 3000 to 10000 nM |  | 
27 | Ac-PL3-Asp-Npg-B5-Asp-TfeGA-Ala-Ala-Phe-Lys*3-PyrS2-Phe-BztA-GlnR*3-Leu-Ser-NH2 [I-898] | < 50 nM | 3000 to 10000 nM |  | 
28 | Ac-PL3-Asp-Cha-B5-Asp-3COOHF-Cbg-Ala-Phe-Lys*3-PyrS2-3Thi-BztA-GlnR*3-Ala-NH2 [I-859] | < 50 nM | 1500 to 3000 nM |  | 
29 | Ac-PL3-Asp-Npg-B5-Asp-3COOHF-Aib-Ala-Phe-Lys*3-PyrS2-BztA-BztA-GlnR*3-Ala-NH2 [I-940] | < 50 nM | 3000 to 10000 nM |  | 
30 | Ac-PL3-Asp-Ile-B5-Asp-3COOHF-Ala-Ala-Phe-Lys*3-PyrS2-3Thi-BztA-GlnR*3-Ala-NH2 [I-969] | < 50 nM | < 1500 nM |  | 
31 | Ac-S5-Thr-Asp-DipA-B5-Asp-3COOHF-Aib-Ala-Phe-Lys*3-PyrS1-Phe-34ClF-GlnR*3-NH2 [I-1807] | < 50 nM | > 10000 nM |  | 
32 | Ac-PL3-Asp-Npg-B5-Asp-3COOHF-Aib-Ala-Phe-Lys*3-PyrS2-2F3MeF-34ClF-GlnR*3-NH2 [I-862] | < 50 nM | 1500 to 3000 nM |  | 
33 | 3Phc3-PL3-Asp-Npg-B5-Asp-3COOHF-Aib-Ala-Phe-Lys*3-PyrS2-3Thi-BztA-GlnR*3-Ala-NH2 [I-749] | < 50 nM | 3000 to 10000 nM |  | 
34 | 2FPhc-PL3-Asp-Npg-B5-Asp-3COOHF-Aib-Ala-Phe-Lys*3-PyrS2-3Thi-BztA-GlnR*3-Ala-NH2 [I-752] | 50 to 200 nM | > 10000 nM |  | 
35 | Ac-PL3-Asp-Chg-B5-Asp-3COOHF-Cha-Ala-Phe-Lys*3-PyrS2-3Thi-BztA-GlnR*3-Ala-NH2 [I-737] | < 50 nM | < 1500 nM |  | 
36 | Ac-PL3-Asp-Npg-B5-Asp-3COOHF-Aib-Ala-Phe-Lys*3-PyrS2-3Thi-34ClF-GlnR*3-Phe-NH2 [I-870] | < 50 nM | 3000 to 10000 nM |  | 
37 | Ac-S5-Glu-Asp-DipA-B5-Asp-3COOHF-Aib-Ala-Phe-Lys*3-PyrS1-Phe-34ClF-GlnR*3-NH2 [I-1784] | < 50 nM | 3000 to 10000 nM |  | 
38 | Ac-PL3-Asp-Ile-B5-Asp-3COOHF-Aib-Ala-Phe-TriAzOrn*3-PyrS2-Phe-34ClF-sCH2S*3-NH2 [I-1860] | < 50 nM | 3000 to 10000 nM |  | 
39 | Ac-PL3-Asp-Npg-B5-Asp-3COOHF-Aib-Ala-Phe-TriAzLys*3-R3MePyrSc7-3Thi-BztA-sAla*3-Ala-NH2 [I-1810] | < 50 nM | 3000 to 10000 nM |  | 
40 | Ac-PL3-Asp-Npg-B5-Asp-3COOHF-Aib-Ala-Phe-Lys*3-PyrS2-[15PyraPy]2NH2F-BztA-GlnR*3-Ala-NH2 [I-1752] | < 50 nM | 3000 to 10000 nM |  | 
41 | Ac-PL3-Asp-Npg-B5-Asp-3COOHF-Aib-Ala-Phe-Lys*3-PyrS2-CypA-34ClF-GlnR*3-Ala-NH2 [I-476] | < 50 nM |  |  | 3000 to 10000 nM
42 | Ac-Pro-S5-Ala-Asp-Npg-B5-Asp-3COOHF-Aib-Ala-Phe-Lys*3-PyrS2-3Thi-BztA-GlnR*3-Ala-NH2 [I-1138] | < 50 nM | > 10000 nM |  | 
43 | Ac-PL3-Asp-Npg-B5-Asp-3COOHF-Aib-Ala-Phe-Lys*3-PyrS2-hnLeu-5IndA-GlnR*3-Ala-NH2 [I-775] | < 50 nM | 3000 to 10000 nM |  | 
44 | Ac-PL3-Asp-Npg-B5-Asp-3COOHF-Phe-Gly-Phe-Lys*3-PyrS2-3Thi-BztA-GlnR*3-Ala-NH2 [I-1015] | < 50 nM | 3000 to 10000 nM |  | 
45 | Ac-PL3-Asp-Npg-B5-Asp-3COOHF-Ala-Ala-Phe-Lys*3-PyrS2-Phe-34ClF-GlnR*3-Val-NH2 [I-834] | < 50 nM | 1500 to 3000 nM |  | 
46 | Ac-PL3-Asp-Npg-B5-Asp-TfeGA-Ala-Ala-Phe-Lys*3-PyrS2-2F3MeF-BztA-GlnR*3-Aib-NH2 [I-127] | < 50 nM | 3000 to 10000 nM |  | 
47 | Ac-PL3-Asp-Npg-B5-Asp-3COOHF-Ala-Ala-Phe-Lys*3-PyrS2-Phe-34ClF-GlnR*3-Val-Ser-NH2 [I-835] | < 50 nM | 3000 to 10000 nM |  | 
